The chains behind the UniProt entries cited, without tags or fusion partners.
UniProt P35372, whole entry, looked up: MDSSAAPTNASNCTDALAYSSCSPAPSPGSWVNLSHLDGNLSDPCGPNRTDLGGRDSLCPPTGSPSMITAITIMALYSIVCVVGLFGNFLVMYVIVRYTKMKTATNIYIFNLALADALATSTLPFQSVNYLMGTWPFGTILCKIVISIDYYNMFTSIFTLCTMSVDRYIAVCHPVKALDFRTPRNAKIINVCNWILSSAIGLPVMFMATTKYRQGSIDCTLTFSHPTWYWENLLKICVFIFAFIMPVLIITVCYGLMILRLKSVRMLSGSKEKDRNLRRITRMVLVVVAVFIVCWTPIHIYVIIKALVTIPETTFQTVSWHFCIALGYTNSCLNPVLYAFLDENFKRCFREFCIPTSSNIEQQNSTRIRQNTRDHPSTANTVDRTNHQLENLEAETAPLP

The assay addresses human μ opiate receptor (Homo sapiens, UniProt P35372). The assay can be described thus: [3H]-naloxone displacement, SPA, membranes of CHO-K1 cells. As to conditions: 1 μM test substance; inhibition of specific binding of 1 nmol/l [3H]-naloxone.
With `COc1cc(C)c(S(=O)(=O)N(C)CCOCC(=O)N(C)CCC2CCC(c3ccccc3)(N3CCCC3)CC2)c(C)c1` (stereo not drawn) [Compound 34, 2-(2-(4-methoxy-N,2,6-trimethylphenylsulfonamido)ethoxy)-N-methyl-N-(2-(4-phenyl-4-(pyrrolidin-1-yl)cyclohexyl)ethyl)acetamide], the “μ opioid receptor [1 μM] % inhibition” value is on record as 69%.

Consider `CN1CCN(C2(CCc3ccccc3)CCC(CN(C)C(=O)COCCN(C)S(=O)(=O)c3c(Cl)cc(Cl)cc3Cl)CC2)CC1` (stereo not drawn) [Compound 195, N-methyl-N-((4-(4-methylpiperazin-1-yl)-4-phenethylcyclohexyl)methyl)-2-(2-(2,4,6-trichloro-N-methylphenylsulfonamido)ethoxy)acetamide], for which the “μ opioid receptor [1 μM] % inhibition” value is 17%.

With `COc1cc(C)c(S(=O)(=O)N2CCCCC2COCC(=O)N(C)CCCC2CCC(CCc3ccccc3)(N3CCCC3)CC2)c(C)c1` (stereo not drawn) [Compound 59, 2-((1-(4-methoxy-2,6-dimethylphenylsulfonyl)piperidin-2-yl)methoxy)-N-methyl-N-(3-(4-phenethyl-4-(pyrrolidin-1-yl)cyclohexyl)propyl)acetamide], the “μ opioid receptor [1 μM] % inhibition” value came to 10%.

Consider `CN(CCCC1CCC(c2ccccc2)(N2CCCC2)CC1)C(=O)CC(NS(=O)(=O)c1ccc2ccccc2c1)c1ccccc1` (stereo not drawn) [Compound 128, N-methyl-3-(naphthalene-2-sulfonamido)-3-phenyl-N-(3-(4-phenyl-4-(pyrrolidin-1-yl)cyclohexyl)propyl)propanamide], for which the “μ opioid receptor [1 μM] % inhibition” value came to 69%.

Turning to `CN(CCCC1CCC(Cc2ccccc2)(N2CCCC2)CC1)C(=O)CC(NS(=O)(=O)c1ccc2ccccc2c1)c1ccccc1` (stereo not drawn) [Compound 74, N-(3-(4-benzyl-4-(pyrrolidin-1-yl)cyclohexyl)propyl)-N-methyl-3-(naphthalene-2-sulfonamido)-3-phenylpropanamide], the “μ opioid receptor [1 μM] % inhibition” value was determined as 25%.

Take `COc1cc(C)c(S(=O)(=O)N(C)CCOCC(=O)N2CCC(Cc3ccccc3)(N(C)C)CC2)c(C)c1` [Compound 63, N-(2-(2-(4-benzyl-4-(dimethylamino)piperidin-1-yl)-2-oxoethoxy)ethyl)-4-methoxy-N,2,6-trimethylbenzenesulfonamide]: the “μ opioid receptor [1 μM] % inhibition” value was determined as 28%.

For the compound `CN(CCOCC(=O)NC1CCC(c2ccccc2)(N2CCCC2)CC1)S(=O)(=O)c1c(Cl)cc(Cl)cc1Cl` (stereo not drawn) [Compound 191, N-(4-phenyl-4-(pyrrolidin-1-yl)cyclohexyl)-2-(2-(2,4,6-trichloro-N-methylphenylsulfonamido)ethoxy)acetamide], the “μ opioid receptor [1 μM] % inhibition” value came to 90%.

As to `CN(CCOCC(=O)NC1CCC(c2ccccc2)(N2CCCC2)CC1)S(=O)(=O)c1ccc(Cl)cc1Cl` (stereo not drawn) [Compound 179, 2-(2-(2,4-dichloro-N-methylphenylsulfonamido)ethoxy)-N-(4-phenyl-4-(pyrrolidin-1-yl)cyclohexyl)acetamide], the “μ opioid receptor [1 μM] % inhibition” value is listed as 94%.

For the compound `CN1CCN(C2(c3ccc(F)cc3)CCN(C(=O)COCC3CCc4ccccc4N3S(=O)(=O)c3ccc(Cl)c(Cl)c3)CC2)CC1` (stereo not drawn) [Compound 126, 2-((1-(3,4-dichlorophenylsulfonyl)-1,2,3,4-tetrahydroquinolin-2-yl)methoxy)-1-(4-(4-fluorophenyl)-4-(4-methylpiperazin-1-yl)piperidin-1-yl)ethanone], the “μ opioid receptor [1 μM] % inhibition” value came to 0%.

As for `COc1cc(C)c(S(=O)(=O)N(C)CCOCC(=O)N(C)CC2CCC(CCc3ccccc3)(N3CCN(C)CC3)CC2)c(C)c1` (stereo not drawn) [Compound 165, 2-(2-(4-methoxy-N,2,6-trimethylphenylsulfonamido)ethoxy)-N-methyl-N-((4-(4-methylpiperazin-1-yl)-4-phenethylcyclohexyl)methyl)acetamide], the “μ opioid receptor [1 μM] % inhibition” value came out at 27%.

For `COc1cc(C)c(S(=O)(=O)N2CCCC(OCC(=O)NC3CCC(Cc4ccccc4)(N4CCCC4)CC3)C2)c(C)c1` (stereo not drawn) [Compound 181, N-(4-benzyl-4-(pyrrolidin-1-yl)cyclohexyl)-2-(1-(4-methoxy-2,6-dimethylphenylsulfonyl)piperidin-3-yloxy)acetamide], the “μ opioid receptor [1 μM] % inhibition” value was determined as 46%.

Take `COc1cc(C)c(S(=O)(=O)N2CCCC(OCC(=O)N(C)CC3CCC(Cc4ccccc4)(N4CCN(C)CC4)CC3)C2)c(C)c1` (stereo not drawn) [Compound 184, N-((4-benzyl-4-(4-methylpiperazin-1-yl)cyclohexyl)methyl)-2-(1-(4-methoxy-2,6-dimethylphenylsulfonyl)piperidin-3-yloxy)-N-methylacetamide]: the “μ opioid receptor [1 μM] % inhibition” value stood at 26%.

`CN(CCC1CCC(c2ccccc2)(N(C)C)CC1)C(=O)COCC1CCc2ccccc2N1S(=O)(=O)c1ccc(Cl)c(Cl)c1` (stereo not drawn) [Compound 111, 2-((1-(3,4-dichlorophenylsulfonyl)-1,2,3,4-tetrahydroquinolin-2-yl)methoxy)-N-(2-(4-(dimethylamino)-4-phenylcyclohexyl)ethyl)-N-methylacetamide]: the “μ opioid receptor [1 μM] % inhibition” value stood at 100%.

As to `CN(C)C1(c2cccc(F)c2)CCC(NC(=O)COCCN(C)S(=O)(=O)c2ccc(Cl)cc2Cl)CC1` (stereo not drawn) [Compound 21, 2-(2-(2,4-dichloro-N-methylphenylsulfonamido)ethoxy)-N-(4-(dimethylamino)-4-(3-fluorophenyl)cyclohexyl)acetamide], the “μ opioid receptor [1 μM] % inhibition” value was determined as 100%.

In the case of `CN(C)C1(c2ccccc2)CCC(NC(=O)CC2c3ccccc3CCN2S(=O)(=O)c2ccc(Cl)c(Cl)c2)CC1` (stereo not drawn) [Compound 26, 2-(2-(3,4-dichlorophenylsulfonyl)-1,2,3,4-tetrahydroisoquinolin-1-yl)-N-(4-(dimethylamino)-4-phenylcyclohexyl)acetamide], the “μ opioid receptor [1 μM] % inhibition” value is listed as 102%.

Regarding `CN1CCN(C2(c3ccccc3)CCN(C(=O)CC(NS(=O)(=O)c3ccc4ccccc4c3)c3ccccc3)CC2)CC1` (stereo not drawn) [Compound 82, N-(3-(4-(4-methylpiperazin-1-yl)-4-phenylpiperidin-1-yl)-3-oxo-1-phenylpropyl)naphthalene-2-sulfonamide], the “μ opioid receptor [1 μM] % inhibition” value worked out at 22%.

In the case of `COc1cc(C)c(S(=O)(=O)N2CCCCC2COCC(=O)NC2CCC(Cc3ccccc3)(N3CCCC3)CC2)c(C)c1` (stereo not drawn) [Compound 149, N-(4-benzyl-4-(pyrrolidin-1-yl)cyclohexyl)-2-((1-(4-methoxy-2,6-dimethylphenylsulfonyl)piperidin-2-yl)methoxy)acetamide], the “μ opioid receptor [1 μM] % inhibition” value is reported as 73%.

Consider `CN(CCC1CCC(Cc2ccccc2)(N(C)C)CC1)C(=O)CC1CCCCN1S(=O)(=O)c1cccc(C(F)(F)F)c1` (stereo not drawn) [Compound 95, N-(2-(4-benzyl-4-(dimethylamino)cyclohexyl)ethyl)-N-methyl-2-(1-(3-(trifluoromethyl)phenylsulfonyl)piperidin-2-yl)acetamide], for which the “μ opioid receptor [1 μM] % inhibition” value was found to be 50%.

As to `CN(CCC1CCC(CCc2ccccc2)(N2CCCC2)CC1)C(=O)CC(NS(=O)(=O)c1ccc2ccccc2c1)c1ccccc1` (stereo not drawn) [Compound 114, N-methyl-3-(naphthalene-2-sulfonamido)-N-(2-(4-phenethyl-4-(pyrrolidin-1-yl)cyclohexyl)ethyl)-3-phenylpropanamide], the “μ opioid receptor [1 μM] % inhibition” value came to 40%.

Consider `CN1CCN(C2(CCc3ccccc3)CCC(CN(C)C(=O)COCC3CCCN3S(=O)(=O)c3c(Cl)cc(Cl)cc3Cl)CC2)CC1` (stereo not drawn) [Compound 172, N-methyl-N-((4-(4-methylpiperazin-1-yl)-4-phenethylcyclohexyl)methyl)-2-((1-(2,4,6-trichlorophenylsulfonyl)pyrrolidin-2-yl)methoxy)acetamide], for which the “μ opioid receptor [1 μM] % inhibition” value worked out at 35%.

For the compound `COc1cc(C)c(S(=O)(=O)N2CCCCC2COCC(=O)N2CCC(Cc3ccccc3)(N(C)C)CC2)c(C)c1` (stereo not drawn) [Compound 65, 1-(4-benzyl-4-(dimethylamino)piperidin-1-yl)-2-((1-(4-methoxy-2,6-dimethylphenylsulfonyl)piperidin-2-yl)methoxy)ethanone], the “μ opioid receptor [1 μM] % inhibition” value was found to be 19%.

As for `Cc1cc(S(=O)(=O)N2CCCCC2CCC(=O)N(C)CCC2CCC(c3ccccc3)(N(C)C)CC2)c(C)cc1Cl` (stereo not drawn) [Compound 107, 3-(1-(4-chloro-2,5-dimethylphenylsulfonyl)piperidin-2-yl)-N-(2-(4-(dimethylamino)-4-phenylcyclohexyl)ethyl)-N-methylpropanamide], the “μ opioid receptor [1 μM] % inhibition” value was determined as 99%.

On to `CN(CCC1CCC(CCc2ccccc2)(N(C)C)CC1)C(=O)COCC1CCc2ccccc2N1S(=O)(=O)c1ccc(Cl)c(Cl)c1` (stereo not drawn) [Compound 101, 2-((1-(3,4-dichlorophenylsulfonyl)-1,2,3,4-tetrahydroquinolin-2-yl)methoxy)-N-(2-(4-(dimethylamino)-4-phenethylcyclohexyl)ethyl)-N-methylacetamide], for which the “μ opioid receptor [1 μM] % inhibition” value is 36%.

Turning to `COc1cc(C)c(S(=O)(=O)N(C)CCOCC(=O)N(C)CCC2CCC(Cc3ccccc3)(N3CCCC3)CC2)c(C)c1` (stereo not drawn) [Compound 39, N-(2-(4-benzyl-4-(pyrrolidin-1-yl)cyclohexyl)ethyl)-2-(2-(4-methoxy-N,2,6-trimethylphenylsulfonamido)ethoxy)-N-methylacetamide], the “μ opioid receptor [1 μM] % inhibition” value is listed as 32%.

On to `O=C(CC(NS(=O)(=O)c1ccc2ccccc2c1)c1ccccc1)N1CCC(c2ccccc2)(N2CCN(c3ccncc3)CC2)CC1` (stereo not drawn) [Compound 98, N-(3-oxo-1-phenyl-3-(4-phenyl-4-(4-(pyridin-4-yl)piperazin-1-yl)piperidin-1-yl)propyl)naphthalene-2-sulfonamide], for which the “μ opioid receptor [1 μM] % inhibition” value was found to be 65%.

With `COc1cc(C)c(S(=O)(=O)N(C)CCOCC(=O)N(C)CCC2CCC(CCc3ccccc3)(N(C)C)CC2)c(C)c1` (stereo not drawn) [Compound 52, N-(2-(4-(dimethylamino)-4-phenethylcyclohexyl)ethyl)-2-(2-(4-methoxy-N,2,6-trimethylphenylsulfonamido)ethoxy)-N-methylacetamide], the “μ opioid receptor [1 μM] % inhibition” value turned out to be 33%.

Turning to `COc1cc(C)c(S(=O)(=O)N(C)CCOCC(=O)N2CCC(c3ccc(F)cc3)(N3CCN(C)CC3)CC2)c(C)c1` [Compound 42, N-(2-(2-(4-(4-fluorophenyl)-4-(4-methylpiperazin-1-yl)piperidin-1-yl)-2-oxoethoxy)ethyl)-4-methoxy-N,2,6-trimethylbenzenesulfonamide], the “μ opioid receptor [1 μM] % inhibition” value is 9%.
